The list shows a part of the results, in another mix than the full data.
The compounds below were run against T1, Protein deacetylase HDAC6 (Homo sapiens) (UniProt Q9UBN7). Conditions: at 10 µM.
T1 sequence (whole entry): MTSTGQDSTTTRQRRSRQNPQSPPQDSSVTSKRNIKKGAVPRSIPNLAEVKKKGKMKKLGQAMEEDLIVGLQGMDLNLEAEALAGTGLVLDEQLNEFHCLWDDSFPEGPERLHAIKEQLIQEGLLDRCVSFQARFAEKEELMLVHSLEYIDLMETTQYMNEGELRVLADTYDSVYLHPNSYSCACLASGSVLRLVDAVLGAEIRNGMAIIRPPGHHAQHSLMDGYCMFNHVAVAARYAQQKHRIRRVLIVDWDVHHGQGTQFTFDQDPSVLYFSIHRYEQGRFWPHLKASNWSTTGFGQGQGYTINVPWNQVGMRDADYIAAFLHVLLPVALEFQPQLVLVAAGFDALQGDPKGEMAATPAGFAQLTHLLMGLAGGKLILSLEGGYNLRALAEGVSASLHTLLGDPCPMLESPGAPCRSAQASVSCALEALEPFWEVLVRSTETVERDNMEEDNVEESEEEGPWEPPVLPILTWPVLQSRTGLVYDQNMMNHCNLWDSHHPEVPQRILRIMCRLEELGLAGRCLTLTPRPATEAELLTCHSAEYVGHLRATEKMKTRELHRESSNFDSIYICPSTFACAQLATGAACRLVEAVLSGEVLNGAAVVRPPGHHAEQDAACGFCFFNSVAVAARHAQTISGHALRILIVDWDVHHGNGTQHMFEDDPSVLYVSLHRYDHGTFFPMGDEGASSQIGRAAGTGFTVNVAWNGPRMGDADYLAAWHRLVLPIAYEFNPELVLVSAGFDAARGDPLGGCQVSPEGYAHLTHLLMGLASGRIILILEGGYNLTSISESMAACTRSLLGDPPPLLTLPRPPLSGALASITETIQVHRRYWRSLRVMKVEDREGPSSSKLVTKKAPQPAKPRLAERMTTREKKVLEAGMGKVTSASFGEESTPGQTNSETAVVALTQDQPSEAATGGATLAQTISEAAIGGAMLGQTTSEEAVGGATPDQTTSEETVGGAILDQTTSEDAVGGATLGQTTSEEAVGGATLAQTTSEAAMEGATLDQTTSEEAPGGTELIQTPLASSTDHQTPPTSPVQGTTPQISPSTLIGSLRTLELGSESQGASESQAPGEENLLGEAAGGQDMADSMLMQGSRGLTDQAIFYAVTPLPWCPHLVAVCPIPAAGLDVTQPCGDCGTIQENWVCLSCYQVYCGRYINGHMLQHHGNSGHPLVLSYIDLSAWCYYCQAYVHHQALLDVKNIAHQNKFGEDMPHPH

Row | SMILES | inhibition [%]
1 | CN(CCCl)CCCl | 6.33

From ChEMBL document CHEMBL4808148, “HDAC6 screening dataset using tau-based substrate in an enzymatic assay yields selective inhibitors and activators” (2021)
